The target in the experiment is FAAH (Homo sapiens, UniProt O00519). Kind of experiment: FAAH enzyme assay, lysate of CHO cells expressing human FAAH. The source says:
To assist in assay development stable cell lines for human, murine and rat full length FAAH were developed. Human FAAH cDNA (Accession No: NM_001441.1) was purchased from Origene (Rockville, Md.). The full length FAAH was subcloned into the mammalian expression vector, pcDEF.neo, using XbaI and […] restriction sites and used for stable cell line generation.
CHO cells expressing FAAH were used to prepare either crude cell lysate or microsome fractions. To harvest cells, tissue culture media was decanted, the monolayer washed three times with Ca^++Mg^++ free PBS and cells recovered after 15 min in enzyme free dissociation media (Millipore Corp, Billerica, Mass.). Cells were collected by centrifuging at 2000 rpm for 15 min. and the cell pellet re-suspended with 50 mM HEPES (pH 7.4) containing 1 mM EDTA and the protease inhibitors aprotinin (1 mg/ml) and leupeptin (100 μM). […]
(American Radiolabeled Chemicals; 1 mCi/ml) with FAAH (Life Sciences (1995), 56, 1999-2005 and Journal of Pharmacology and Experimented Therapeutics (1997), 283, 729-734), Analytical. […] In addition, routine assays were performed monitoring hydrolysis of arachidonyl-7-amino-4-methylcoumarin amide (AAMCA) by following increase in fluorescence upon release of 7-amino 4-methyl coumarin (λEX=355 nm, (λEM=460 nm). Analytical. Biochemistry (2005). 343, 143-51. […]

Protein sequences, listed by entry. Tags and fused reporters are not part of them.
UniProt O00519, whole entry: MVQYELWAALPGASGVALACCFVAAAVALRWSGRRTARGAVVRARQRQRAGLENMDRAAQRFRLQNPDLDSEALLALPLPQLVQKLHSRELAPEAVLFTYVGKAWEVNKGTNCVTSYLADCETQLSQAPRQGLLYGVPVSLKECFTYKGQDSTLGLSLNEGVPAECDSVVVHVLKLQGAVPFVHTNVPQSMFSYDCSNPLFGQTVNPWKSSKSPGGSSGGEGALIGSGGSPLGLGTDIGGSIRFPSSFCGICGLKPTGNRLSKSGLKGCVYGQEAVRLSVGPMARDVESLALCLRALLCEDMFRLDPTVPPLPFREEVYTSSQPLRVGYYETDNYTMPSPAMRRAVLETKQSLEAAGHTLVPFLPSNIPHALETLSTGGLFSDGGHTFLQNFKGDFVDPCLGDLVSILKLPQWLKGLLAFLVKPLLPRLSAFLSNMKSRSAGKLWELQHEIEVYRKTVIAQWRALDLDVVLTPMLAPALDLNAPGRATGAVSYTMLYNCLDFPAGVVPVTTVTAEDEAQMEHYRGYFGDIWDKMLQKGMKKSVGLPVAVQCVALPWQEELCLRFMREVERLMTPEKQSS

Like-named read-outs stand apart in the source and are kept apart here.

Consider `Cn1cc(-n2cc(Sc3ccc(Cl)cn3)c(-c3ccc4c(c3)CCNC4=O)n2)cn1`, for which, for the setting “read-out: FAAH Human Cell Lysate IC50, cell lysate”, the IC50 stood at 0.31 µM.

With `CC(C)(O)c1cnc(-c2nn(-c3ccc(F)cc3)cc2SC2CCCCC2)cn1`, the IC50 (read-out: Human Lysate, CHO cell lysate) was found to be 0.472 µM.

The values above are taken from patent US20110144056A1, “PYRAZOLE DERIVATIVES USEFUL AS INHIBITORS OF FAAH” (priority 2008, published 2011).
